For this assay, the target named is 5-hydroxytryptamine receptor 1A (Rattus norvegicus, UniProt P19327).

Sequences of proteins named here, by UniProt entry; tags and fusion partners are left off.
UniProt P19327, whole entry: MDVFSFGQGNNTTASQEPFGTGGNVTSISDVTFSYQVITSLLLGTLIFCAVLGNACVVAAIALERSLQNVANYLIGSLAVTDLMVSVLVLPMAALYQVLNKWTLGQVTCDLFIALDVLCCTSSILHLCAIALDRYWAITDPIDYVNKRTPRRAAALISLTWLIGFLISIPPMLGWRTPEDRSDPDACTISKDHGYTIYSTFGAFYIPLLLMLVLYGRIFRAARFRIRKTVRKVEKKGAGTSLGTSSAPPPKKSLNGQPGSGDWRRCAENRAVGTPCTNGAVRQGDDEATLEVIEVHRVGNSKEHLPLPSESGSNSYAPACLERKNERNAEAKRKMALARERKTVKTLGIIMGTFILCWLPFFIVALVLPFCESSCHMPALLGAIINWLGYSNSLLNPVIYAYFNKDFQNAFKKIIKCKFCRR

pKi: −log10 of the molar value.

From ChEMBL document CHEMBL1126551, “Three-dimensional quantitative structure-activity relationships of 5-HT receptor binding data for tetrahydropyridinylindole derivatives: a comparison of the Hansch and CoMFA methods” (J Med Chem, 1993) come the findings set out here.

Regarding `COc1ccc2[nH]cc(C3=CCNCC3)c2c1` [RU-24969], the pKi – broadly, the Ki on a negative log10 scale, so that one unit is a factor of ten – is 7.96.
